Results published in PubChem BioAssay (NCI).
Only a part is listed here, and it is no random draw.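 How to read the values: 0–100, growth inhibition (40 = 60% inhibited); 0, no net growth; -100 to 0, cell death (-40 = 40% of starting cells died; -100 = all dead).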 The source made the active and inactive calls. The calls were made as follows: active = growth percent below 10; inactive = the rest.

Tests used:
Test in all cases: NCI-60 one-dose screen, 48 h (100 = growth as untreated, 0 = no growth, -100 = all killed)
HCT-15 colon = conditions: 10 µM unless noted
HT29 colon = conditions: 10 µM unless noted
SNB-75 CNS = conditions: 10 µM unless noted
SNB-19 CNS = conditions: 10 µM unless noted
U251 CNS = conditions: 10 µM unless noted
PC-3 prostate = conditions: 10 µM unless noted
SK-MEL-5 melanoma = conditions: 10 µM unless noted
UACC-62 melanoma = conditions: 10 µM unless noted
LOX IMVI melanoma = conditions: 10 µM
SK-MEL-28 melanoma = conditions: 10 µM unless noted
SK-MEL-2 melanoma = conditions: 10 µM unless noted
EKVX NSCLC = conditions: 10 µM unless noted
SN12C renal = conditions: 10 µM unless noted
UO-31 renal = conditions: 10 µM unless noted
TK-10 renal = conditions: 10 µM unless noted
ACHN renal = conditions: 10 µM unless noted
CAKI-1 renal = conditions: 10 µM unless noted
A498 renal = conditions: 10 µM unless noted
HL-60(TB) leukemia = conditions: 10 µM unless noted
CCRF-CEM leukemia = conditions: 10 µM unless noted

Measured: growth

O=C(Oc1c(Cl)cc(Cl)cc1[N+](=O)[O-])c1cc([N+](=O)[O-])cc([N+](=O)[O-])c1
inactive: HCT-15 colon 105% | HT29 colon 111% | SNB-75 CNS 103% | SNB-19 CNS 118% | U251 CNS 104% | PC-3 prostate 87.2% | SK-MEL-5 melanoma 104% | UACC-62 melanoma 106% | LOX IMVI melanoma 94.6% | SK-MEL-28 melanoma 116% | SK-MEL-2 melanoma 121% | EKVX NSCLC 104% | SN12C renal 104% | UO-31 renal 92.8% | TK-10 renal 119% | ACHN renal 100% | CAKI-1 renal 84% | A498 renal 89.9% | HL-60(TB) leukemia 105% | CCRF-CEM leukemia 97.7%

CCN(CCI)Cc1cccc2ccccc12
inactive: HCT-15 colon 103% | HT29 colon 99.2% | SNB-75 CNS 86.8% | SNB-19 CNS 100% | U251 CNS 97.7% | PC-3 prostate 96.3% | SK-MEL-5 melanoma 101% | UACC-62 melanoma 97.1% | LOX IMVI melanoma 95.3% | SK-MEL-28 melanoma 109% | SK-MEL-2 melanoma 93.4% | EKVX NSCLC 106% | SN12C renal 94.6% | UO-31 renal 88.7% | TK-10 renal 95% | ACHN renal 105% | A498 renal 105% | HL-60(TB) leukemia 93.3% | CCRF-CEM leukemia 96.7%

O=[As](O)(c1ccccc1)c1ccc(O)cc1
inactive: HCT-15 colon 96.4% | HT29 colon 106% | SNB-75 CNS 101% | SNB-19 CNS 96.4% | U251 CNS 96.8% | PC-3 prostate 101% | SK-MEL-5 melanoma 101% | UACC-62 melanoma 108% | LOX IMVI melanoma 96.8% | SK-MEL-28 melanoma 118% | SK-MEL-2 melanoma 91.6% | EKVX NSCLC 103% | SN12C renal 115% | UO-31 renal 90.8% | TK-10 renal 128% | ACHN renal 103% | A498 renal 97.3% | HL-60(TB) leukemia 93.1% | CCRF-CEM leukemia 96.4%

O=[As](O)(c1cccc(O)c1)c1cccc(O)c1
inactive: HCT-15 colon 88.9% | HT29 colon 105% | SNB-75 CNS 102% | SNB-19 CNS 99% | U251 CNS 98.1% | PC-3 prostate 101% | SK-MEL-5 melanoma 107% | UACC-62 melanoma 98% | LOX IMVI melanoma 99.4% | SK-MEL-28 melanoma 102% | SK-MEL-2 melanoma 112% | EKVX NSCLC 109% | SN12C renal 95.4% | UO-31 renal 99.2% | TK-10 renal 110% | ACHN renal 100% | A498 renal 97.1% | HL-60(TB) leukemia 110% | CCRF-CEM leukemia 89%

O=[N+]([O-])c1ccc([N+](=O)[O-])cc1
inactive: HCT-15 colon 104% | HT29 colon 113% | SNB-75 CNS 88.4% | SNB-19 CNS 103% | U251 CNS 103% | PC-3 prostate 91.7% | SK-MEL-5 melanoma 115% | UACC-62 melanoma 92.2% | LOX IMVI melanoma 116% | SK-MEL-28 melanoma 113% | SK-MEL-2 melanoma 124% | EKVX NSCLC 110% | SN12C renal 100% | UO-31 renal 92.1% | TK-10 renal 116% | ACHN renal 118% | CAKI-1 renal 94.5% | A498 renal 81.3% | CCRF-CEM leukemia 126%

CCCN(CCCl)C1c2ccccc2-c2ccccc21
inactive: HCT-15 colon 98% | HT29 colon 96.2% | SNB-75 CNS 83.1% | SNB-19 CNS 101% | U251 CNS 102% | PC-3 prostate 90.3% | SK-MEL-5 melanoma 98.4% | UACC-62 melanoma 87.9% | LOX IMVI melanoma 95.7% | SK-MEL-28 melanoma 104% | SK-MEL-2 melanoma 99.1% | EKVX NSCLC 102% | SN12C renal 100% | UO-31 renal 87.9% | TK-10 renal 98.6% | ACHN renal 98.3% | A498 renal 109% | HL-60(TB) leukemia 94% | CCRF-CEM leukemia 101%

ClCCN1CCn2cnc3ncnc-3c21
inactive: HCT-15 colon 103% | HT29 colon 92% | SNB-75 CNS 89% | SNB-19 CNS 107% | U251 CNS 115% | PC-3 prostate 97.8% | SK-MEL-5 melanoma 99.5% | UACC-62 melanoma 99.9% | LOX IMVI melanoma 107% | SK-MEL-28 melanoma 112% | SK-MEL-2 melanoma 98.2% | EKVX NSCLC 108% | SN12C renal 102% | UO-31 renal 89.8% | TK-10 renal 102% | ACHN renal 104% | A498 renal 110% | HL-60(TB) leukemia 105% | CCRF-CEM leukemia 111%

[N-]=[N+]=NC(=O)c1cccc([N+](=O)[O-])c1
inactive: HCT-15 colon 57.4% | HT29 colon 78.5% | SNB-75 CNS 105% | SNB-19 CNS 73.4% | U251 CNS 58% | PC-3 prostate 28.4% | SK-MEL-5 melanoma 76% | UACC-62 melanoma 64.9% | LOX IMVI melanoma 60% | SK-MEL-28 melanoma 97.4% | SK-MEL-2 melanoma 89.2% | EKVX NSCLC 61.7% | SN12C renal 82.3% | UO-31 renal 59% | TK-10 renal 83% | ACHN renal 39.5% | CAKI-1 renal 70.9% | HL-60(TB) leukemia 54.9% | CCRF-CEM leukemia 59.9%

O=C(CCC(=O)Oc1c(Cl)cc([N+](=O)[O-])cc1[N+](=O)[O-])Oc1c(Cl)cc([N+](=O)[O-])cc1[N+](=O)[O-]
inactive: HCT-15 colon 109% | HT29 colon 101% | SNB-75 CNS 105% | SNB-19 CNS 111% | U251 CNS 104% | PC-3 prostate 103% | SK-MEL-5 melanoma 99.1% | UACC-62 melanoma 110% | LOX IMVI melanoma 101% | SK-MEL-28 melanoma 115% | SK-MEL-2 melanoma 121% | EKVX NSCLC 119% | SN12C renal 107% | UO-31 renal 98% | TK-10 renal 98.4% | ACHN renal 108% | A498 renal 99.4% | HL-60(TB) leukemia 102% | CCRF-CEM leukemia 104%

CN(C)P1(Cl)=NP(Cl)(N(C)C)=NP(Cl)(N(C)C)=N1 (stereo not drawn)
inactive: HCT-15 colon 97.1% | HT29 colon 88.6% | SNB-75 CNS 97.8% | SNB-19 CNS 108% | U251 CNS 93.8% | PC-3 prostate 87.2% | SK-MEL-5 melanoma 106% | UACC-62 melanoma 100% | LOX IMVI melanoma 103% | SK-MEL-28 melanoma 105% | SK-MEL-2 melanoma 95.8% | EKVX NSCLC 95.5% | SN12C renal 103% | UO-31 renal 84.8% | TK-10 renal 87.6% | A498 renal 75.9% | HL-60(TB) leukemia 69% | CCRF-CEM leukemia 97.3%

CCCCCCC(C)OP(O)OC(C)CCCCCC (stereo not drawn)
inactive: HCT-15 colon 102% | HT29 colon 118% | SNB-75 CNS 113% | SNB-19 CNS 98.1% | U251 CNS 98.3% | PC-3 prostate 93.5% | SK-MEL-5 melanoma 103% | UACC-62 melanoma 96.4% | LOX IMVI melanoma 98.3% | SK-MEL-28 melanoma 120% | SK-MEL-2 melanoma 107% | EKVX NSCLC 96.8% | SN12C renal 101% | UO-31 renal 77.8% | TK-10 renal 105% | ACHN renal 105% | CAKI-1 renal 89.6% | A498 renal 126% | HL-60(TB) leukemia 103% | CCRF-CEM leukemia 107%

COC(=O)C(=[N+]=[N-])C(=O)c1cc([N+](=O)[O-])cc([N+](=O)[O-])c1
inactive: HCT-15 colon 102% | HT29 colon 131% | SNB-75 CNS 105% | SNB-19 CNS 109% | U251 CNS 107% | PC-3 prostate 99% | SK-MEL-5 melanoma 108% | UACC-62 melanoma 111% | LOX IMVI melanoma 119% | SK-MEL-28 melanoma 113% | SK-MEL-2 melanoma 111% | EKVX NSCLC 103% | SN12C renal 118% | UO-31 renal 111% | TK-10 renal 108% | ACHN renal 117% | CAKI-1 renal 101% | A498 renal 97.9% | CCRF-CEM leukemia 101%

CN(CCCl)CCC(=O)c1ccccc1
inactive: HCT-15 colon 97.9% | HT29 colon 98.2% | SNB-75 CNS 90.5% | SNB-19 CNS 105% | U251 CNS 107% | PC-3 prostate 115% | SK-MEL-5 melanoma 98.4% | UACC-62 melanoma 100% | LOX IMVI melanoma 98.6% | SK-MEL-28 melanoma 96.9% | SK-MEL-2 melanoma 97.3% | EKVX NSCLC 101% | SN12C renal 102% | UO-31 renal 91.5% | TK-10 renal 95.4% | ACHN renal 98.2% | A498 renal 94.5% | HL-60(TB) leukemia 72.1% | CCRF-CEM leukemia 80.4%

CCCC1OP(=O)(Nc2ccccc2)OCC1CC (stereo not drawn)
inactive: HCT-15 colon 103% | HT29 colon 106% | SNB-75 CNS 86.9% | SNB-19 CNS 103% | U251 CNS 99.2% | PC-3 prostate 93.6% | SK-MEL-5 melanoma 108% | UACC-62 melanoma 97.4% | LOX IMVI melanoma 101% | SK-MEL-28 melanoma 113% | SK-MEL-2 melanoma 101% | EKVX NSCLC 104% | SN12C renal 99.5% | TK-10 renal 95.5% | ACHN renal 98.3% | CAKI-1 renal 90.5% | A498 renal 87.9% | HL-60(TB) leukemia 107% | CCRF-CEM leukemia 101%

O=C(O)CCc1ccc(N(CCCl)CCCl)cc1
inactive: HCT-15 colon 96% | HT29 colon 103% | SNB-75 CNS 89% | SNB-19 CNS 108% | U251 CNS 90.2% | PC-3 prostate 88% | SK-MEL-5 melanoma 92.6% | UACC-62 melanoma 86% | LOX IMVI melanoma 88.6% | SK-MEL-28 melanoma 108% | SK-MEL-2 melanoma 110% | EKVX NSCLC 94.3% | SN12C renal 92.2% | UO-31 renal 89.9% | TK-10 renal 101% | ACHN renal 97.7% | HL-60(TB) leukemia 89.8% | CCRF-CEM leukemia 74.9%

Nc1ccccc1[As](=O)(O)c1ccccc1
inactive: HCT-15 colon 107% | HT29 colon 109% | SNB-75 CNS 98.1% | SNB-19 CNS 101% | U251 CNS 100% | PC-3 prostate 86.5% | SK-MEL-5 melanoma 108% | UACC-62 melanoma 103% | LOX IMVI melanoma 104% | SK-MEL-28 melanoma 105% | SK-MEL-2 melanoma 104% | EKVX NSCLC 107% | SN12C renal 106% | UO-31 renal 71.3% | TK-10 renal 100% | ACHN renal 107% | CAKI-1 renal 105% | A498 renal 113% | HL-60(TB) leukemia 85.6% | CCRF-CEM leukemia 42.8%

CCOP(=O)(Nc1ccccc1Cl)OCC
inactive: HCT-15 colon 103% | HT29 colon 109% | SNB-75 CNS 87.2% | SNB-19 CNS 112% | U251 CNS 105% | PC-3 prostate 90% | SK-MEL-5 melanoma 92.9% | UACC-62 melanoma 101% | LOX IMVI melanoma 89.5% | SK-MEL-28 melanoma 108% | SK-MEL-2 melanoma 121% | EKVX NSCLC 91.6% | SN12C renal 112% | UO-31 renal 60.6% | TK-10 renal 117% | A498 renal 116% | HL-60(TB) leukemia 83.9% | CCRF-CEM leukemia 109%
